Patent US20070219212A1, “Pyranouidole Derivatives and the Use Thereof for the Treatment of Hepatitis C Virus Infection or Disease” (priority 2004, published 2007)

Test system: Hepatitis C virus replicon (1b) constitutively expressed in Clone A cells (Huh-7 derived)
Assay: Hepatitis C virus replicon inhibition in Clone A cells, NS5a ELISA
Assay type: cell-based
Conditions: 3 days, reference compound
Description: the compounds of the present invention to inhibit Hepatitis C virus replicon constitutively expressed in a human liver cell line was established by the following experimental procedure:
Clone A cells (licensed from Apath, LLC) are derived from Huh-7 cells (human hepatoma cell line) and constitutively express the HCV replication proteins with concomitant amplification the HCV replicon (1b) genome. Cells are maintained and passaged in DMEM/10% FCS/1 mg/ml G418 (Geneticin from Gibco #11811-023; other media components as described below in “elisa media”). Care should be taken to maintain cell monolayers at a subconfluent state by 1:3 or 1:4 passages every 3-4 days. The replicon is extremely sensitive to the cellular metabolism/proliferation state and replicon copy number will rapidly decline in confluent monolayers (resting cells). Under ideal conditions each cell has, on average, 1000 copies of the HCV replicon genome.
10 μl of compounds (in DMSO) are added to column 3 of the mother plate. 5 μl of DMSO are added to the remaining columns. Mother plates are set aside until ready for serial dilution to be performed.
Prepare cell plates (daughter plates) by adding 52 μl of Elisa media to each well.
In Mother plates, serially transfer 50 μl/well from column 3 through column 12.
Transfer 8 μl from mother plate to daughter plates (all 96 wells). […]
Read plates with optical density (O.D.) 450 filter. […]

## Interferon-a2: reference compound of the HCV replicon ELISA assay
  IC50: 4-30 U/ml
